Target: 5-HT6R (Homo sapiens, UniProt P50406)
Assay: Basal cAMP production (constitutive Gs signaling) in NG108-15 cells transiently expressing 5-HT6R, CAMYEL BRET
Format: cell-based
Design: expressed in transfected cells; host or cells: NG108-15 (transient, Lipofectamine 2000, cotransfected with the CAMYEL sensor)
Settings: 5-HT6R-dependent Gs signaling
Method: NG108-15 cells were grown in Dulbecco’s modified Eagle’s medium (DMEM) supplemented with 10% dialyzed fetal calf serum, 2% hypoxanthine/aminopterin/thymidine (Life Technologies), and antibiotics. cAMP measurement was performed in cells transiently expressing 5-HT6R using the bioluminescence resonance energy transfer (BRET) sensor for cAMP, CAMYEL (cAMP sensor using YFP-Epac-RLuc).[45] NG108-15 cells were cotransfected in suspension with 5-HT6R (0.5 μg DNA/million cells) and CAMYEL constructs (1 μg DNA/million cells), using Lipofectamine 2000 according to the manufacturer’s protocol, and plated in white 96-well plates (Greiner) at a density of 50 000 cells per well. […] Coelanterazine H (Molecular Probes) was added at a final concentration of 5 μM and left at room temperature for 5 min. BRET was measured using a Mithras LB 940 plate reader (Berthold Technologies).

By UniProt entry, the sequences of proteins in these tests, tags left out.
UniProt P50406, whole entry: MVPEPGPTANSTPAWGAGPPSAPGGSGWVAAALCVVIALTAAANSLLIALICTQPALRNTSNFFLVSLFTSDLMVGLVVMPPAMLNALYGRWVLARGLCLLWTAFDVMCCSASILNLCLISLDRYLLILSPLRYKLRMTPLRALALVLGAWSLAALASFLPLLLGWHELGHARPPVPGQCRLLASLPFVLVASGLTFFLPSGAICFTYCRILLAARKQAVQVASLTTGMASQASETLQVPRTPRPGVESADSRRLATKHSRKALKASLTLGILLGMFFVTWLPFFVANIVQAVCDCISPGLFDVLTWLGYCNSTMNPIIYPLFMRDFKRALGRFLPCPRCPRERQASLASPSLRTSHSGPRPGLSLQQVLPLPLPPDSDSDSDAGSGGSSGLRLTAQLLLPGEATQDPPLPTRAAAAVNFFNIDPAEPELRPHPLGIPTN

functional profile: inverse agonist
SMILES: COc1ccc(NS(=O)(=O)c2sc3ccc(Cl)cc3c2C)cc1N1CCNCC1 [SB-271046, reference compound]

From publication PMC8041276 (ACS Chemical Neuroscience, 2021)
